Compounds with a hit are over-represented: about 3.7% of the library has one in this group of screens.
miR-21 reporter = miR-21 reporter, rising signal; HeLa miR-21 FLuc reporter, luciferase, 48 h; Potency, µM (top dose mostly 38.3 µM), without a hit: at the top dose reporter change, positive = more light; 340,000 tested, under 10 active; active = well fitted rising curve with a large enough effect; inconclusive = small, poorly fitted or top-dose-only effect; inactive = no such curve, though single readings can be large or run the other way;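 note: % of control where 0% means no effect; miR-21 action dims this reporter so a rising signal means less miR-21 action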
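HeLa cells endogenously expressing miR-21, stably carrying CMV-driven firefly luciferase with a downstream miR-21 binding site, 2000 cells/well. Titrations up to approximately 40 uM, 48 hours; luciferase luminescence read.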
Nrf2 ARE act = activators of Nrf2 (ARE) signaling | AREc32 ARE-luciferase reporter (MCF7-derived line), luminescence, 24 h | actives 0.31% (n = 410,000) | Potency, µM (highest dose often 46.1 µM), without a hit: top-dose activation, usual class: activators; further: potency means the concentration at half of the fitted maximal effect; % of control where 0% means no effect; nearly all actives have a fitted effect of over 65% in size
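Quantitative high-throughput format: AREc32 reporter cells, 1000 per well, received compound by pin transfer and were incubated 24 hr at 37 deg C, 5% CO2, before Steady-Glo luminescence detection.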
A549 tox = kills or reduces viability of A549 cells in Nrf2 counter-screen. A549 ARE-Fluc cells, CellTiter-Fluor viability, 18-24 h. Potency, µM (titrated, usually from 46 µM), without a hit: at the highest dose activity change, negative = cytotoxicity, actives largely listed as inhibitors. actives 0.16% (n = 390,000). AID 504648; further: potency means the concentration at half of the fitted maximal effect; on the % scale 0 is the no-effect control and ±100 the full control effect
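A549 ARE-Fluc cells in 5% FBS OPTI-MEM, 5000 cells/well, rested 2 h then exposed to compounds in concentration-response for 18-24 h at 37 °C. Viability by CellTiter-Fluor fluorescence (Ex 405/Em 525) after 30 min; luciferase luminescence (BugLite, 15 min, RT) read afterwards.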
ClpP mod = qHTS Assay for Activators of ClpP. ATP-dependent Clp protease proteolytic subunit (Bacillus subtilis (strain 168)), P80244. purified B. subtilis ClpP, FRET peptide cleavage, 20 min. Potency, µM (titrated, usually from 57.5 µM), inactives show top-dose activity change, negative = active. actives 1.9% (n = 340,000); active means well fitted falling curve with a large enough effect; inconclusive means small, poorly fitted or top-dose-only effect; inactive means no such curve, though single readings can be large or run the other way; further: potency means the concentration at half of the fitted maximal effect; the source files actives as falling curves though it sought activators and does not explain the sign; nearly all actives have a fitted effect of over 65% in size
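Buffer: 100 mM Tris/HCl pH8, 100 mM KCl, 0.05% low protease BSA, 2.5% glycerol, 0.01% Tween-20. ClpP 10 microg/mL final; 20 min RT; delta FRET normalized to ADEP and DMSO controls.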
TCR activator = activators of T cell receptors. primary human leukocytes, anti-CD3, IL-2 HTRF, 48 h. Potency, µM (top dose mostly 9.22 µM), for the others: at the highest dose activation of IL-2 secretion, actives largely listed as activators. 330,000 tested, under 10 active; further: % of control where 0% means no effect
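48 hr co-incubation of compounds, a-CD3 beads and primary human leukocytes; IL-2 quantified homogeneously by HTRF with anti-IL-2 K and d2 conjugates.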
Nrf2 inh = blocks Nrf2 signaling; A549 ARE-Fluc reporter, luciferase luminescence, 18-24 h; Potency, µM (top dose mostly 46 µM), inactives show at the top dose activity change, negative = inhibition, most hits filed as inhibitors; actives 2.1% (n = 360,000); further: potency means the concentration at half of the fitted maximal effect; on the % scale 0 is the no-effect control and ±100 the full control effect; nearly all actives have a fitted effect of over 60% in size
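Nrf2 function is reported as luminescence of an ARE-controlled luciferase in A549 cells. Compounds were tested at several concentrations, and a CellTiter-Fluor read on the same wells flagged cytotoxicity.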
Starred values were filed as active, the others as inactive; u = inconclusive; x = not tested or not shown; [ ] = another dose, or the depositor's remark. Unless noted, the call rests on the fitted dose curve; in most records, active means well fitted curve in the direction sought with a large enough effect; inconclusive means small, poorly fitted or top-dose-only effect, or another doubt; inactive means no such curve, though single readings can be large; an effect the other way counts as inactive or inconclusive.

Fields – miR-21 reporter, Nrf2 ARE act, A549 tox, ClpP mod, TCR activator, Nrf2 inh
1	N#C/C(=C\c1cccc([N+](=O)[O-])c1)c1ccccn1
→ -16%, 3.5µM*, 0%, x, 5%, -13%
2	CCOc1ccc2oc(-c3ccccc3)c(C(=O)O)c2c1
→ -6%, -2%, 10%, -5%, 1%, -24%
3	CCOc1ccc2oc(-c3ccccc3)c(C(=O)N(C)C)c2c1
→ 4%, 0%, -2%, 25µM*, 2%, u
4	CCOc1ccc2oc(-c3ccccc3)c(C(=O)N3CCN(CCO)CC3)c2c1
→ -7%, 2%, -17%, 14µM*, 2%, 2%
5	CCCC(C)(C)C(=O)N1CCC1(C)C(=O)Nc1ccc2c(c1)OCCO2 (configuration not stated)
→ x, 0%, x, 0%, x, x
6	Cc1nn(CCCC(=O)Nc2cccc(F)c2)c(=O)c2c1sc1ccccc12
→ -49%, -1%, -13%, 0%, x, 2.6µM*
7	CCc1cccc(C)c1NC(=O)CCCn1nc(C)c2sc3ccccc3c2c1=O
→ -18%, 0%, 6%, -10%, x, u
8	COc1cc(-c2nc3ccc4ccccc4c3c3c2CCC3)cc(OC)c1OC
→ -23%, 3%, -12%, 25µM*, -2%, u
9	N#CCSc1n[nH]c2nc3c(c(=O)n12)C1(CCCC1)Cc1ccccc1-3
→ -6%, 3%, 0%, 16µM*, 0%, 11%
10	O=C1c2cc3ccccc3c(-c3ccccc3)c2C(=O)N1c1ccccn1
→ -3%, 0%, -2%, 32µM*, -1%[46.1 µM], 1%
11	O=C1C2C3C=CC(C4CC34)C2C(=O)N1/N=C/c1ccc(-c2cccc([N+](=O)[O-])c2)o1 (configuration not stated)
→ 7%, u, -1%, 32µM*, -26%[46.1 µM], -3%
12	Cc1cccc(NC(=S)NCc2ccco2)n1
→ -5%, 13µM*, -3%, x, -1%, -12%
13	O=C(NCc1ccccc1)n1cc(P(=S)(c2ccccc2)c2ccccc2)c2ccccc21
→ x, x, 1%, x, x, 8%
14	COc1cc(N)c(C(O)c2nccc3cc(OC)c(OC)cc23)cc1OC (configuration not stated)
→ -8%, 0%[9.22 µM], -5%, x, 8%, u
15	COc1ccc(C(O)c2nccc3cc(OC)c(OC)cc23)cc1OC (configuration not stated)
→ 5%, 2%, -14%, x, 0%, 21µM*
16	COc1ccc(N(C(=O)c2ccc(Cl)cc2)S(=O)(=O)c2ccc(C)cc2)cc1
→ u, 0%, -2%, 0%, x, -17%
17	C/C(=N\O)c1ccc2c3c([nH]c2c1)CCCC3
→ -27%, 6%, -16%, 16µM*, 0%, -1%
18	COc1ccc2nc(Nc3nc4cc5c(cc4s3)OCO5)sc2c1
→ -56%, 5%, 0%, 13µM*, 2%[46.1 µM], -16%
19	COc1ccc2nc(Nc3ccc4c(c3)OCO4)sc2c1
→ -74%, 5%, -10%, 0%, x, u
20	O=C(Nc1nc2cc3c(cc2s1)OCCO3)c1cccc(N2C(=O)CCC2=O)c1
→ -5%, 3%, 0%, -2%, -2%, -21%

2 records drawn at random from those above, as already listed:
Fields – miR-21 reporter, Nrf2 ARE act, A549 tox, ClpP mod, TCR activator, Nrf2 inh
5	CCCC(C)(C)C(=O)N1CCC1(C)C(=O)Nc1ccc2c(c1)OCCO2 (configuration not stated)
→ x, 0%, x, 0%, x, x
12	Cc1cccc(NC(=S)NCc2ccco2)n1
→ -5%, 13µM*, -3%, x, -1%, -12%

The main list resumes, repeating the 2 entries before the break.
Fields – miR-21 reporter, Nrf2 ARE act, A549 tox, ClpP mod, TCR activator, Nrf2 inh
19	COc1ccc2nc(Nc3ccc4c(c3)OCO4)sc2c1
→ -74%, 5%, -10%, 0%, x, u
20	O=C(Nc1nc2cc3c(cc2s1)OCCO3)c1cccc(N2C(=O)CCC2=O)c1
→ -5%, 3%, 0%, -2%, -2%, -21%
21	CCN(CC)S(=O)(=O)c1cccc(C(=O)Nc2nc3cc4c(cc3s2)OCCO4)c1
→ u, 0%, u, -21%, 6%, 15µM*
22	COc1ccc(C(=O)Nc2nc3cc4c(cc3s2)OCCO4)c(OC)c1
→ -44%, 4%, -4%, -34%, 0%, 21µM*
23	COc1ccccc1C(=O)Nc1nc2cc3c(cc2s1)OCCO3
→ -53%, 8%, -2%, 4%, -5%, 12%
24	CC(=O)c1cc2c(cc1NC(=O)CSc1nnc(C3CC3)n1C)OCO2
→ x, 0%, x, -29%, x, x
25	Cc1cc2nc(-c3ccc[nH]c3=O)[nH]c2cc1C
→ u, -1%, 6%, 4%, 0%, 12µM*
26	CCCC(=O)Nc1ccc2oc(-c3cccnc3)nc2c1
→ -52%, 4%, 1%, 16µM*, -3%, 5%
27	Cc1ccc2oc(-c3cccc(NC(=O)C4CCCO4)c3)nc2c1 (configuration not stated)
→ -42%, u, 7%, 28µM*, 10%, u
28	CCCC(=O)Nc1cccc(-c2nc3cc(C)c(C)cc3o2)c1
→ -57%, 4%, -9%, 22µM*, -8%, u
29	CCCC(=O)Nc1ccc2oc(=O)ccc2c1
→ 4%, -1%, -4%, 25µM*, 1%, -5%
30	CCOc1ccc(C(=O)Nc2ccc3oc(-c4cccnc4)nc3c2)cc1
→ -4%, 0%, -3%, -12%, x, u
31	CCCNC(=O)C1(C)CCN(C(=O)c2c(F)ccc(C)c2F)C1 (configuration not stated)
→ x, 1%, x, -4%, x, x
32	CC(C)n1c(=O)c2ccccc2n1Cc1cn(C2CCCC2)nn1
→ x, -1%, x, 5%, x, x
33	COCCOC(=O)C1=C(C)NC(=O)NC1c1cccc2ccccc12 (configuration not stated)
→ -1%, 0%, -12%, 0%, -14%, -15%
34	CCCCC(=O)Nc1ccc2oc(-c3cccnc3)nc2c1
→ -58%, 2%, -2%, 18µM*, -2%, -17%
35	COc1ccc(C(=O)Nc2ccc3oc(-c4cccnc4)nc3c2)cc1
→ 0%, 0%, 0%, 5%, x, u
36	O=C(NCCc1ccccc1)c1c2c(nc3ccccc13)C(=O)N(C1CCCCC1)C2
→ -11%, 6%, -19%, -16%, x, u
37	CC1CCN(c2ccc3c(c2)S(=O)(=O)c2cccc(C(=O)NC[C@@H]4CCCO4)c2C3=O)CC1
→ x, 0%, -9%, 1%, -3%, 9%
38	O=C(NCC1CCCO1)c1cccc2c1C(=O)c1ccc(N3CCC(Cc4ccccc4)CC3)cc1S2(=O)=O (configuration not stated)
→ x, -2%, -8%, -1%, 0%, 21µM*
39	Cc1sc2ncnc(N3CCC(C(=O)Nc4ccc(Br)cc4Br)CC3)c2c1C
→ x, 0%, -13%, -13%, 3%, 21µM*
40	COc1ccccc1OCC(=O)NNC(=O)C1CCN(c2ncnc3sc(C)c(C)c23)CC1
→ x, 0%, 0%, 1%, x, 23µM*

Ordered by the number under miR-21 reporter (smallest number first): 3 from the list above
no. | structure | miR-21 reporter | Nrf2 ARE act | TCR activator
34 | CCCCC(=O)Nc1ccc2oc(-c3cccnc3)nc2c1 | -58% | 2% | -2%
23 | COc1ccccc1C(=O)Nc1nc2cc3c(cc2s1)OCCO3 | -53% | 8% | -5%
30 | CCOc1ccc(C(=O)Nc2ccc3oc(-c4cccnc4)nc3c2)cc1 | -4% | 0% | x

Carrying on:
Fields – miR-21 reporter, Nrf2 ARE act, A549 tox, ClpP mod, TCR activator, Nrf2 inh
41	Cc1sc2ncnc(N3CCC(C(=O)NCC(=O)Nc4ccc(F)c(F)c4)CC3)c2c1C
→ 22%, 0%, u, -1%, 5%, 18µM*
42	CCOC(=O)Cn1c(=O)oc2cc(S(=O)(=O)NCc3ccc(F)cc3)ccc21
→ -3%, 2%, -7%, -3%, x, 12%
43	COc1cc(OC)c(NC(=S)Nc2cc(Cl)cc(Cl)c2)cc1Cl
→ 2%, 2%, 0%, 0%, -3%, 21µM*
44	COc1cc(NC(=S)Nc2ccccn2)c(OC)cc1Cl
→ -7%, 4µM*, 1%, 0%, 16%, -13%

Compound activity from PubChem BioAssay.
